# Antibody variant affinities, Ab-95 light chain, assay 2

Binding partner: SARS-CoV-2 spike HR2 peptide, sequence PDVDLGDISGINAS.

Each scFv is VH, a 15-residue (Gly4Ser)3 linker, VL, as in the parent Ab-95, and differs from it in the CDRs of the light chain only.
VH: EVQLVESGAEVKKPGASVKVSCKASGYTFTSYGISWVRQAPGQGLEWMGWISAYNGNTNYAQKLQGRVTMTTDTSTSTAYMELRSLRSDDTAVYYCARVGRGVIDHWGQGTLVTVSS
VL: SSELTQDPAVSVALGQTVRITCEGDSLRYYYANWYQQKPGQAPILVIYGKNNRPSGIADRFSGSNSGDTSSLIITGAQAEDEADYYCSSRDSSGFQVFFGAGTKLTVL

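Phage display of a naive human antibody library on the peptide gave the parent. In library AAYL52, one, two or three CDR residues were substituted; doubles and triples were drawn at random. The assay is AlphaSeq: two haploid yeast populations carry antibody and antigen on their surface. Mating (16 h, 30 °C) was followed by selection of diploids and sequencing of their barcodes. Read counts were normalised to the haploid input and turned into Kd by a linear fit to BCL2-family pairs of known affinity, for each replicate. Mating was done three times.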

The parent's light chain CDRs are EGDSLRYYYAN, GKNNRPS, SSRDSSGFQVF; each variant's own CDRs replace them letter for letter.
Numbers give log10(Kd / nM), so 0 is 1 nM and 3 is 1 µM. Smaller is tighter.
The mean shown is taken over the replicates in which the pair was detected.
A pair that was not seen in that replicate is written "ND"; this usually means weak binding, but a binder can also be missed.

| CDR-L1 | CDR-L2 | CDR-L3 | replicates, log10 nM | mean log10 Kd (nM) | empty controls |
|---|---|---|---|---|---|
| EGDSLRYYYAN | GKNNRTS | DSRDSSGKQVF | 5.24 3.81 3.58 | 4.21 | 5/9 (4.20) |
| EGDSYRYYYAN | GCNNNPS | SSRDSSGFQVF | ND ND ND | ND | 2/9 (3.43) |
| EEDSTRYYYAN | GKNHRPS | SSRDSSGFQVF | ND 3.63 ND | 3.63 | 4/9 (3.77) |
| ERDSLRYYYAN | GKNFRPS | SSRDSSGFQVF | 4.00 3.71 4.08 | 3.93 | 2/9 (3.69) |
| FGDSLRYYYFN | GKNNRPS | SSRDSSIFQVF | 4.11 ND ND | 4.11 | 1/9 (3.15) |
| EGDSLRYYYAN | GKRNRPF | SSRDNSGFQVF | 4.93 5.25 ND | 5.09 | 3/9 (3.66) |
| PGDSCRYYYEN | GKNNRPS | SSRDSSGFQVF | 3.72 ND ND | 3.72 | 1/9 (4.75) |
| EGMDLRYYYAN | GKNNRPS | SSRDSSGFQVN | 4.82 4.38 3.99 | 4.40 | 1/9 (3.12) |
| EGDSLNIYYAR | GKNNRPS | SSRDSSGFQVF | 3.98 3.26 ND | 3.62 | 6/9 (4.00) |
| KGDSLRYMYAN | GKNNRPS | SSRDSSGFQVF | 1.18 1.11 0.63 | 0.98 | 1/9 (3.76) |
| EGNSLRYYYAN | GKNNRPS | SSRDSSGCCVF | 1.84 1.75 1.51 | 1.70 | 4/9 (4.52) |
| EGDSLLYYYEN | GKNNRPQ | SSRDSSGFQVF | ND ND ND | ND | 0/9 |
| EGDSVRYYYAN | GKNNRPS | QSRDISGFQVF | 2.99 3.56 2.50 | 3.02 | 5/9 (4.25) |
| EGDSLRYYYAN | GKNWRRQ | SSRDSSGFQVF | 3.24 2.97 4.33 | 3.51 | 3/9 (3.31) |
| EGDSLRYYYAE | GKNNRPS | SMRDSSGFQVV | ND 5.32 ND | 5.32 | 3/9 (4.26) |
| EGDVLRYYYDN | GKNNRPS | PSRDSSGFQVF | ND 5.21 3.48 | 4.34 | 2/9 (3.76) |
| EGDSLRYYYAN | CKNNRPS | SSRDISGFQVR | 5.26 5.17 ND | 5.21 | 2/9 (3.70) |
| EGDSLRYYYAN | GKNNRRS | SSNDSSGFPVF | 3.93 ND ND | 3.93 | 2/9 (4.08) |
| EGDSLRYYYAN | GKKNRPS | SSRDSSGHKVF | 3.36 3.84 3.86 | 3.69 | 4/9 (3.90) |
| EGDSLRYYKAN | GKNNRPS | SYRDSSGFRVF | 2.86 2.79 2.83 | 2.83 | 6/9 (3.70) |
| EGDSLRYYYAN | GKNCRPS | SSRDSSFFQVR | ND ND 4.13 | 4.13 | 4/9 (3.97) |
| EGDMLRGYYAN | GPNNRPS | SSRDSSGFQVF | 2.09 2.19 2.06 | 2.12 | 5/9 (4.02) |
| EGDSLRVYYAN | GKNNRPS | SSRISSGRQVF | ND ND ND | ND | 0/9 |
| EGDSLRYYYAN | GKNNRPS | SSVDSRGYQVF | 2.44 2.22 2.46 | 2.37 | 5/9 (4.52) |
| EGCSPRYYYAN | GKNNDPS | SSRDSSGFQVF | ND ND 4.28 | 4.28 | 2/9 (4.21) |
| EGDSLWYYYAN | GKNGRPS | SSRDSSGRQVF | 2.94 2.57 2.99 | 2.84 | 5/9 (3.82) |
| EGDSLRYIYAN | GKNKRPS | SSDDSSGFQVF | 3.48 4.47 3.62 | 3.86 | 3/9 (3.94) |
| EGDSLRYYYFN | GANNRPD | SSRDSSGFQVF | ND ND ND | ND | 1/9 (4.19) |
| EGDSLRYYYAN | TKNNRPS | SSRDSSGFGKF | ND ND ND | ND | 2/9 (3.78) |
| FEDSLRYYYAN | GVNNRPS | SSRDSSGFQVF | 4.60 3.09 ND | 3.84 | 4/9 (4.23) |
| EGDSLRYYYAN | GKNNRPS | SKRDSSHFQFF | 2.86 2.24 2.44 | 2.51 | 0/9 |
| EGMSLRYYSYN | GKNNRPS | SSRDSSGFQVF | 3.53 3.58 ND | 3.56 | 1/9 (5.06) |
| EGDSLRYYYAN | GKNDRSS | QSRDSSGFQVF | 2.53 3.94 2.92 | 3.13 | 2/9 (3.44) |
| EGDSLRYYYAN | GKPNRPS | FSRDSSGNQVF | 4.75 ND ND | 4.75 | 3/9 (4.28) |
| EGAWLRYYYAD | GKNNRPS | SSRDSSGFQVF | ND 4.92 ND | 4.92 | 2/9 (4.00) |
| PVDSLRYYYAN | GKNNRPS | SSRDSSGFQVF | 2.98 2.98 3.58 | 3.18 | 2/9 (4.50) |
| EGDSLRAYYKN | GKNNRPS | SSRPSSGFQVF | 4.44 4.74 4.13 | 4.44 | 6/9 (4.16) |
| TRDSLRYYYAN | GKNNRPS | SSRDSSGFQVA | 2.62 2.81 2.54 | 2.66 | 3/9 (3.44) |
| EGDSLRYYYAN | GKNNRQS | SSRKSSGFQVH | 3.61 ND ND | 3.61 | 1/9 (4.83) |
| EGDSLRYYYAN | GKMNKPS | SSRDSDGFQVF | ND 3.29 4.40 | 3.84 | 3/9 (4.19) |
| EGDSLRYPYAN | GMNNRPS | SFRDSSGFQVF | 2.25 2.29 2.19 | 2.24 | 6/9 (4.56) |
| FGDSLRYYYAN | GKNNRPS | SSRDSSLFQMF | 2.73 2.28 2.52 | 2.51 | 2/9 (3.68) |
| EGDSLRYIYAN | GKNNRQS | SSRDSSGFAVF | 4.53 5.19 4.06 | 4.59 | 3/9 (3.86) |
| EGDSLRYLYAN | GKNNRGT | SSRDSSGFQVF | 2.01 2.08 1.92 | 2.00 | 3/9 (4.31) |
| CGDSLRYWLAN | GKNNRPS | SSRDSSGFQVF | 3.44 3.89 3.71 | 3.68 | 1/9 (3.32) |
| EGDSTRNYYAN | GKNNRPH | SSRDSSGFQVF | 2.85 3.28 4.25 | 3.46 | 1/9 (4.26) |
| EGDNPRYYYAN | GKNNLPS | SSRDSSGFQVF | 3.50 ND 3.71 | 3.60 | 2/9 (5.04) |

The opening 3 entries, copied out:

CDR-L1,CDR-L2,CDR-L3,"replicates, log10 nM",mean log10 Kd (nM),empty controls
EGDSLRYYYAN,GKNNRTS,DSRDSSGKQVF,5.24 3.81 3.58,4.21,5/9 (4.20)
EGDSYRYYYAN,GCNNNPS,SSRDSSGFQVF,ND ND ND,ND,2/9 (3.43)
EEDSTRYYYAN,GKNHRPS,SSRDSSGFQVF,ND 3.63 ND,3.63,4/9 (3.77)

Background: pairings of library AAYL52 with three empty control strains gave a value in 28% of cases (median 3.91, 5th percentile 2.90). Values in that range, when seen in few replicates, are hard to tell from nonspecific mating. For each scFv, signals with the empty controls are counted beside the result, with their mean in brackets.
Parent in this assay: reference entry 2.31, copy in this library 2.25.

Values reported by Engelhart et al. 2022, doi:10.1038/s41597-022-01779-4 (FLAb copy).